{
  "source": "patent US20220213197A1",
  "about": "(priority 2019, published 2022)",
  "system": "Mycobacterium tuberculosis",
  "assay": "Antituberculosis activity in guinea pig model of experimental tuberculosis",
  "conditions": "in vivo",
  "data": [
    {"smiles": "NNC(=O)c1ccncc1", "note": "[placebo + isoniazid, Isoniazid]", "values": [
      {"measurement": "Isolation of MTB when lung tissue homogenates are inoculated on solid culture media, units.", "result": "0 ± 0", "unit": "units"}
    ]}
  ]
}
